Results as given in US9725465B2, “Biaryl acetamide compounds and methods of use thereof” (Ambit Biosciences Corporation, priority 2013, dated 2017).

Assays:
BaF3 FLT3-ITD/D835 cells = conditions: BaF3 FLT3-ITD/D835, female nu/nu mice, 30 mpk p.o. once daily for 14 days in 5% hydroxypropylbetacyclodextrin
BaF3 FLT3-ITD cells = conditions: female nu/nu mice, 30 mpk p.o. once daily for 14 days in 5% hydroxypropylbetacyclodextrin

## CC(C)(C)c1cc(NC(=O)Nc2ccc(-c3cn4c(n3)sc3cc(OCCN5CCOCC5)ccc34)cc2)no1 [AC220, quizartinib]
BaF3 FLT3-ITD/D835 cells
  Survival time to endpoint (TTE): 20
  increased lifespan (% ILS): 25%
BaF3 FLT3-ITD cells
  Survival time to endpoint (TTE): 34
  increased lifespan (% ILS): 94%
